Molecular target: Mu-type opioid receptor (Rattus norvegicus, UniProt P33535)
Assay: Compound was evaluated for its ability to displace [3H]DAMGO in C6 glioma cells expressing the cloned Opioid receptor mu 1
Format: cell-based

Amino acid sequences for entries named in this document (tags omitted).
UniProt P33535, whole entry: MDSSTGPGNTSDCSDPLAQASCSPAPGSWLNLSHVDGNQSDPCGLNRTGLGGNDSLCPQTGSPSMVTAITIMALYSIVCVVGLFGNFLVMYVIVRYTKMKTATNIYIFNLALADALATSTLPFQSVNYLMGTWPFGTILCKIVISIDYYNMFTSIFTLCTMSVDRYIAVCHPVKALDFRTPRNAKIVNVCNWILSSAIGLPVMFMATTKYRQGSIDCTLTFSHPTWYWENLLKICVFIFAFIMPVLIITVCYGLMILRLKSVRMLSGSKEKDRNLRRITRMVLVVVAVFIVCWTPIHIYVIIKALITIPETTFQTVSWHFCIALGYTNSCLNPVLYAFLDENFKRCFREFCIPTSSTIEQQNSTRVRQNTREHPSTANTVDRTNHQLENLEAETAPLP

## Oc1ccc2c3c1O[C@H]1c4[nH]c5ccccc5c4C[C@@]4(O)[C@@H](C2)N(CC2CC2)CC[C@]314 [NALTRINDOLE]
  Ki: 3.7 nM

Source: ChEMBL document CHEMBL1132798, “N-Cyclohexylethyl-N-noroxymorphindole: a mu-opioid preferring analogue of naltrindole” (Bioorg Med Chem Lett, 2000)
